Results on three compounds are retold here after patent publication US10239884B2, “Coelenterazine compounds and uses thereof” (KEIO UNIVERSITY, priority 2017, dated 2019).

Protein sequences, listed by entry. Tags and fused reporters are not part of them.
UniProt P27652, whole entry A55T/C124A/S130A/K136R/A143M/M185V/M253L/S287L: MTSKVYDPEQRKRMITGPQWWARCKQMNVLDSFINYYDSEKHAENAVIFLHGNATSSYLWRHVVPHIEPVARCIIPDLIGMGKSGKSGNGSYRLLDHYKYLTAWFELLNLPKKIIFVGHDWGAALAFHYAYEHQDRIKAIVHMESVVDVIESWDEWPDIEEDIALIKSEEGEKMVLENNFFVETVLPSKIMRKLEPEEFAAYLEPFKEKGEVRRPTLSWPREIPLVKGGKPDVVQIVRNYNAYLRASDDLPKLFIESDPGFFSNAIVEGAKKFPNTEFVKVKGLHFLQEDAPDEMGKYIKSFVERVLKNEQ
UniProt P27652, whole entry A55T/A123S/C124A/S130A/K136R/A143M/D154M/E155G/D162E/I163L/M185L/M253L/S287L: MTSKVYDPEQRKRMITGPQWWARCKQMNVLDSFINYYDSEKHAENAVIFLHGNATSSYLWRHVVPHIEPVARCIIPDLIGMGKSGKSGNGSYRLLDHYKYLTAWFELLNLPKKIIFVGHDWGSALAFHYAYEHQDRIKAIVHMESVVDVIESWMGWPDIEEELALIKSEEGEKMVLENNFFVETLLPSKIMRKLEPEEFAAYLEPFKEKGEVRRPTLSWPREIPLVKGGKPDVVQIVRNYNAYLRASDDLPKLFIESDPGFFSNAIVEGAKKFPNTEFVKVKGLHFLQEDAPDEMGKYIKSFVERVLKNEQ

What all share (assay type): biochemical
Assay [1] deals with T1, RLuc8 (Renilla reniformis, UniProt P27652, A143M/A55T/C124A/K136R/M185V/M253L/S130A/S287L).
T1 construct: expressed in transfected cells; host or cells: COST cells (so in the source)
The note with it: 2 μM substrate in PBS pH 7.4, cell lysate, maximum intensity over 1 second, relative value. From the text:
(§1) The luciferases were respectively expressed in COST cells using an expression vector (pcDNA3.1(+), commercially available from Invitrogen) comprising the sequence encoding native Renilla Luciferase (RLuc) (trade name pGL4.75, commercially available from Promega) or an expression vector (trade name pcDNA3.1(+), commercially available from Invitrogen) comprising the sequence encoding a RLuc derivative RLuc8 or RLuc8.6-535 (Reference: Loening, A. M. et al., Nat. Methods, 2007, 4, 641-643.). The cells were lysed using a Renilla Luciferase Lysis Buffer (E291A, Promega), and the lysate was directly used as an enzyme solution. […] Bioluminescence was measured according to the protocol of Renilla Luciferase Assay System (Cat. No. E 2810; Promega). The luminescent substrate was dissolved in methanol to prepare a 2 mM solution. The solution was diluted to 2 μM with PBS buffer (pH 7.4), and the diluted solution was used as a substrate solution. To 200 μL of the substrate solution, 4 μL of the cell lysate containing RLuc, RLuc 8 or RLuc8.6-535 was added to start the luminescent reaction. The luminescence intensity was measured with a Berthold Lumat LB 9507 for 1 second, and indicated by the maximum luminescence intensity (I). The luminescence intensity of the native CTZ by RLuc8 was set to be 1.0, and the other bioluminescence intensities were normalized to be relative values to that of native CTZ.

For assay [2], the target named is T2, RLuc8.6-535 (Renilla reniformis, UniProt P27652, A123S/A143M/A55T/C124A/D154M/D162E/E155G/I163L/K136R/M185L/M253L/S130A/S287L). The arrangement: expressed in transfected cells; host or cells: COST cells (so in the source). The note with it: 2 μM substrate in PBS pH 7.4, cell lysate, maximum intensity over 1 second, relative value.
Source text: as §1

Assay [3] concerns the target T2, RLuc8.6-535. Also noted: expressed in transfected cells; host or cells: COST cells (so in the source). The note with it: bioluminescence spectrum, ATTO LumiFL. The method, then: (§2) As in the method for measuring bioluminescence intensity described above, luminescence spectrum was measured according to the protocol of Renilla Luciferase Assay System (Cat. No. E 2810; Promega). The luminescence spectrum was measured using ATTO LumiFL. The maximum luminescence intensities were normalized to be relative values to 1.0 upon determination of the maximum luminescence wavelength.

The target of assay [4] is T1, RLuc8. The following applies: bioluminescence spectrum, ATTO LumiFL. The method, then:
as §2

Regarding `Cc1ccc(-c2cn3c(=O)c(Cc4ccc(O)cc4)nc-3c(Cc3ccccc3)[nH]2)cc1` [Example 6-Methyl-CTZ], the “RLuc8 luminescence intensity (%)” value at RLuc8 [1] came to 2.72%. Besides, the “RLuc8.6-535 luminescence intensity (%)” value on RLuc8.6-535 [2] is given as 41.0%. Besides, on RLuc8.6-535 [3], the “RLuc8.6-535 half-width (nm)” value is “[51] nm” and the “RLuc8.6-535 maximum luminescence wavelength (nm)” value came out at 413 nm. For the same compound, at RLuc8 [4], the “RLuc8 half-width (nm)” value was “[44] nm” and the “RLuc8 maximum luminescence wavelength (nm)” value stood at 415 nm.

Take `O=c1c(Cc2ccc(O)cc2)nc2c(Cc3ccccc3)[nH]c(-c3ccc(OCCCCCO)cc3)cn1-2` [6-Alkyl5OH-CTZ]: at RLuc8 [1], the “RLuc8 luminescence intensity (%)” value is reported as 3.75%. Moreover, the “RLuc8.6-535 luminescence intensity (%)” value on RLuc8.6-535 [2] was found to be 22.5%. At RLuc8.6-535 [3], the “RLuc8.6-535 half-width (nm)” value is “[66] nm” and the “RLuc8.6-535 maximum luminescence wavelength (nm)” value is 406 nm. On RLuc8 [4], the “RLuc8 half-width (nm)” value was “[70] nm” and the “RLuc8 maximum luminescence wavelength (nm)” value was determined as 403 nm.

In the case of `COCCCOc1ccc(-c2cn3c(=O)c(Cc4ccc(O)cc4)nc-3c(Cc3ccccc3)[nH]2)cc1` [6-Alkyl3OMe-CTZ], at RLuc8 [1], the “RLuc8 luminescence intensity (%)” value came to 9.19%. Further, at RLuc8.6-535 [2], the “RLuc8.6-535 luminescence intensity (%)” value was 41.1%. For the same compound, at RLuc8.6-535 [3], the “RLuc8.6-535 half-width (nm)” value is “[59] nm” and the “RLuc8.6-535 maximum luminescence wavelength (nm)” value was determined as 412 nm. On RLuc8 [4], the “RLuc8 half-width (nm)” value is “[44] nm” and the “RLuc8 maximum luminescence wavelength (nm)” value was “(418) nm”.
